The list shows a part of the results, in another mix than the full data. Activity calls are given as the source filed them. Calls come from the whole dose curve; as a rule, active = well fitted inhibition curve with a large enough effect; inconclusive = small, poorly fitted or top-dose-only effect; inactive = no such curve, though single readings can be large or run the other way.
% is set by controls: 0 for no effect and ±100 for the full control effect.

Sequences of proteins named here, by UniProt entry; tags and fusion partners are left off. A change or cut given only in a name is not applied to a line headed by its entry.
UniProt Q8WZA2: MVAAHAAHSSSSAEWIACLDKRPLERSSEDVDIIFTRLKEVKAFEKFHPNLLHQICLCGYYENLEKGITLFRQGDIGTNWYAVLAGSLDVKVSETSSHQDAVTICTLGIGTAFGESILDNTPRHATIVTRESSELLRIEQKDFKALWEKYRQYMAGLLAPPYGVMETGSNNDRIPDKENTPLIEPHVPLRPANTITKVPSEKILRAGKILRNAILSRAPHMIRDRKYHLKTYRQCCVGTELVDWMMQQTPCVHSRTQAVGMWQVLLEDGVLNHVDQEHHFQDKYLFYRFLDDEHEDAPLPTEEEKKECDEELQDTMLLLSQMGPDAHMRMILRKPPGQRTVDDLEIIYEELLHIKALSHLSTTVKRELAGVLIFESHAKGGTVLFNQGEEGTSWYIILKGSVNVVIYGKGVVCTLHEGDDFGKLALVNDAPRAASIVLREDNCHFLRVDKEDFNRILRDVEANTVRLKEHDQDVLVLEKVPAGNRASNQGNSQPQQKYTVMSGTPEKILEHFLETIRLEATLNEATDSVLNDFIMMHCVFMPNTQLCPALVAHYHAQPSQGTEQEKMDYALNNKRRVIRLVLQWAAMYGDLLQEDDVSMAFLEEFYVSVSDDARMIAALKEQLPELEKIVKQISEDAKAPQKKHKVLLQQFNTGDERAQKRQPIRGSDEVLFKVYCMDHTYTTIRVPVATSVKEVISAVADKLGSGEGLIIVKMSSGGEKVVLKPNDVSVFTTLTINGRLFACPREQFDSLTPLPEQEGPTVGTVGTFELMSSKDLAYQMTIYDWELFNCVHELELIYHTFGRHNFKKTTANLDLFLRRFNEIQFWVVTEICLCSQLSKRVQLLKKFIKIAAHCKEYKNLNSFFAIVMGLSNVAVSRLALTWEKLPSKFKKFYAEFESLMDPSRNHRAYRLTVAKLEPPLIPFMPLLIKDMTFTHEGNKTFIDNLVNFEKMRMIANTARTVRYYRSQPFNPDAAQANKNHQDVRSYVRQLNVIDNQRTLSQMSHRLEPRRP

This assay has as its target Rap guanine nucleotide exchange factor 4 (Homo sapiens) (UniProt Q8WZA2). Briefly: qHTS for Antagonist of cAMP-regulated guanine nucleotide exchange factor 2 (EPAC2): primary screen. Note: nearly all actives have a fitted effect of over 45% in size. The settings on record: EPAC2 GEF exchange of Rap1B-BODIPY-GDP, fluorescence; at 114 µM (top of the series) unless noted. The text has this:
In multi-cellular eukaryotic organisms, the effects of cAMP are transduced by two ubiquitously-expressed intracellular cAMP receptors, the classic protein kinase A/cAMP-dependent protein kinase (PKA/cAPK) and the more recently discovered exchange protein directly activated by cAMP/cAMP-regulated guanine nucleotide exchange factor (EPAC/cAMP-GEF). Both PKA and EPAC are ubiquitously expressed in all tissues, and an increase in intracellular cAMP levels will lead to the activation of both PKA and EPAC. Therefore, careful dissections of the individual role and relative contribution of EPAC and PKA within the overall cAMP signaling in various model systems are critical for further elucidating the mechanism of cAMP signaling. To date no EPAC-specific antagonists and agonist, as well as isoform-specific agonists have been reported, and developing EPAC-specific pharmacological probes to determine the physiological functions that EPAC play in the overall cAMP-mediated signaling remains a major challenge within the research field. Furthermore, identified regulators of EPAC may lead to new mechanism-based therapeutic strategies specifically targeting the EPAC / cAMP-signaling components as EPAC has been implicated to play important roles in major human pathological conditions such as diabetes, heart disease, and cancer.
This qHTS will be used to screen the Molecular Libraries Small Molecule Repository (MLSMR) as a concentration-titration series using the NCGC unique quantitative screening (qHTS) platform to find inhibitors for EPAC2. In addition, this assay will also be used as a counterscreen for the EPAC1 qHTS. This fluorescent based assay is developed and validated for EPAC2 that measures exchange using EPAC effector Rap1 complex with BODIPY-GDP, a GDP analog with a tethered fluorophores. Inhibitors are identified by monitoring the change in fluorescence signal as the exchanged free BODIPY-GDP has a reduced fluorescence compared to Rap1-bound BODIPY-GDP. Decrease in signal (inhibition) is the desired outcome for the EPAC2 antagonist while no activity in this assay is desired for the EPAC1 antagonist counterscreen.
NIH Chemical Genomics Center [NCGC]
NIH Molecular Libraries Probe Centers Network [MLPCN]
Assay Submitter (PI): Xiaodong Cheng, The University of Texas, Medical Branch
Briefly, three uL of reagents (100 nM EPAC2, 250 nM RAP1B-BODIPY-GDP, 50 uM GDP) were dispensed into a 1536-well Greiner black solid-bottom medium binding assay plate. Controls and test compounds (23 nL) were transferred to the plate via a Kalypsys pin tool equipped with a 1536-pin array. The plates were centrifuged at 1,000 rpm for 15 seconds followed by 5 minute incubation at room temperature. The assay plates were read at 5 minute intervals for 30 minutes in the ViewLux plate reader using 480nm excitation and 540nm emission filters. The results were normalized to the agonist positive control ATA and DMSO.
In general terms: Quantitative high-throughput screening tests each substance at several concentrations.
On to `CCN(N=Nc1nonc1N)c1nonc1N`, for which the activity, negative = inhibition is inactive: 0.398%.

`Nc1cccc2ccc([As](=O)(O)O)cc12`: the activity, negative = inhibition was inactive: -11.9%. In the case of `CCCC1OP(N)(=O)OCC1CC` (centres undefined), the activity, negative = inhibition was inactive: 13%. In the case of `O=C(O)c1ccccc1[As](=O)(O)O` it was inactive: -5.5%; in that of `CC(=O)Nc1ccc([As](=O)(O)O)cc1`, inactive: 6.5%. The result for `CN(C)P(=O)(N(C)C)n1c(Nc2ccccc2)nnc1-c1ccccc1` reads inactive: -17.8%; that for `O=P(Nc1nc2ccc(Cl)cc2s1)(c1ccccc1)c1ccccc1`, inactive: -22.8%; that for `CN(C(=O)Cc1ccc(Cl)c(Cl)c1)[C@H]1CCCC[C@@H]1N1CCCC1`, inactive: 4.04%.

For `Cc1ccc(NP(=O)(Oc2ccccc2F)Oc2ccccc2F)nc1`, the activity, negative = inhibition was inactive: -14.5%. In the case of `CCOP(=O)(Nc1ccccc1)OCC` it was inactive: 9.74%; in that of `Cc1cc(SC(NC(=O)c2ccc(F)cc2)C(Cl)(Cl)Cl)ncn1` (centres undefined), inactive: -2.74%; in that of `CC(C)CC(=O)NC(Sc1ccc(Cl)cc1)C(Cl)(Cl)Cl` (centres undefined), inactive: -2.84%. In the case of `Nc1cc(N)c2nonc2c1[N+](=O)[O-]`, the activity, negative = inhibition was inactive: 14.5%. The result for `O=C(NC(Sc1ccncn1)C(Cl)(Cl)Cl)c1ccccc1` (centres undefined) reads inactive: -2.66%; that for `Oc1ccccc1CNc1ccccn1`, inactive: -1.7%; that for `O=[N+]([O-])C1C(O)C(O)C([N+](=O)[O-])C(O)C1O` (centres undefined), inactive: 6.93%. With `NC(=O)c1cc([N+](=O)[O-])cc([N+](=O)[O-])c1N`, the activity, negative = inhibition was inactive: 6.64%. In the case of `Cc1ccc(N/C(=N/P(=O)(N2CCOCC2)N2CCOCC2)N2CCOCC2)cc1` it was inactive: 11.8%; in that of `CN(C(=O)Cc1ccc(Cl)c(Cl)c1)[C@H]1CCCC[C@H]1N1CCCC1`, inactive: 9.54%; in that of `Cc1ccc(OP(=O)(Nc2nccs2)Oc2ccc(C)cc2)cc1`, inactive: 7.44%. The result for `COc1ccccc1OP(=O)(Nc1ccc(C)cn1)Oc1ccccc1OC` reads inactive: -9.24%. The result for `Clc1ccc(Cl)c(NC2=NCC(CBr)S2)c1` (centres undefined) reads inactive: -5.78%. Take `CN1CCCC(OC(=O)C(c2ccccc2)c2ccccc2)C1` (centres undefined): the activity, negative = inhibition was inactive: 19.2%. The result for `C[N+]1=C2C=CC=CC=C2SC12C([N+](=O)[O-])=CC([N+](=O)[O-])=C[C-]2[N+](=O)[O-]` (centres undefined) reads inactive: -4.05%. For the compound `Nc1ccc([As](=O)(O)c2ccc(N)cc2)cc1`, the activity, negative = inhibition was inactive: 6.56%. The result for `CCN(/C(=N/P(=O)(N1CCOCC1)N1CCOCC1)N1CCOCC1)c1ccc(OC)cc1` reads inactive: 3.05%; that for `CN(C)C(=O)OCCc1n(C)cc[n+]1C`, inactive: 14.2%. The result for `CC(C)=N/N=C(\N)N[N+](=O)[O-]` reads inactive: -0.511%; that for `CC(C)c1nc(Nc2ccccc2)n(P(=O)(N(C)C)N(C)C)n1`, inactive: 1.6%; that for `c1cc(-c2nn[nH]n2)ccc1-c1nn[nH]n1`, inactive: 10.8%. In the case of `COc1ccc(C2=NCC(CBr)S2)cc1` (centres undefined) it was inactive: 0.856%; in that of `CC(=O)N1C2C3N(C(C)=O)C1C1N(C(C)=O)C(C(N1C(C)=O)N3C(C)=O)N2C(C)=O`, inactive: 0.325% [at 57.1 µM]; in that of `O=[N+]([O-])c1cccc2n[nH]nc12`, inactive: -2.38%.

Regarding `O=[N+]([O-])c1cc([N+](=O)[O-])c(CCNc2ccccc2)c([N+](=O)[O-])c1`, the activity, negative = inhibition was inactive: -14.3%. In the case of `CCc1nc2c(n1)c1c(non1O)c1c2no[n+]1[O-]` it was inactive: 3.81%. With `Cc1ccc(NP(=O)(Oc2ccccc2)Oc2ccccc2)nc1`, the activity, negative = inhibition is inactive: -4.16%. `CC(C)(C)C(=O)NC(Sc1ccncn1)C(Cl)(Cl)Cl` (centres undefined): the activity, negative = inhibition was inactive: 6.12%. In the case of `O=[N+]([O-])c1ncn(CCn2ncnc2[N+](=O)[O-])n1` it was inactive: -2.82%; in that of `O=[N+]([O-])c1cccc(NC2=NCC(CBr)S2)c1` (centres undefined), inactive: -4.14%. The result for `COC(=O)C1(C)COP(=O)(Nc2ccccc2)OC1` (centres undefined) reads inactive: 2.23%; that for `O=C(O)CNc1ccc([As](=O)(O)O)cc1`, inactive: 5.47%. In the case of `O=P1(N(CCCl)CCCl)OCCCS1` (centres undefined) it was inactive: -1.34%; in that of `O=C(Nc1cc([As](=O)(O)O)ccc1O)c1ccccc1`, inactive: -1.04%.

Take `CC(=O)NC(SC(=S)N(C)C)C(Cl)(Cl)Cl` (centres undefined): the activity, negative = inhibition was inactive: 0.504%.

Take `O=[N+]([O-])c1ncn(CCn2cnc([N+](=O)[O-])n2)n1`: the activity, negative = inhibition was inactive: -0.187%.

Regarding `O=[N+]([O-])c1ccc(O)c(/C=N/Nc2ccc([N+](=O)[O-])cc2[N+](=O)[O-])c1`, the activity, negative = inhibition was inactive: -10.4%.

In the case of `O=[As](O)(c1ccccc1)c1ccc(O)cc1`, the activity, negative = inhibition was inactive: 0.0959%. The result for `Nc1ccc([As](=O)(O)c2ccc([N+](=O)[O-])cc2)cc1` reads inactive: 1.8%; that for `C(Cc1nn[nH]n1)Cc1nn[nH]n1`, inactive: -0.119%.

Source of the values: PubChem BioAssay AID720708 (National Center for Advancing Translational Sciences (NCATS), 2013).
